PubChem BioAssay AID2825 (Sanford-Burnham Center for Chemical Genomics, 2010)
The entries are a selection whose mix differs from that of the whole data set. Activity calls are given as the source filed them.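 The calls were made as follows: active = inhibition of 50% or more; inactive = inhibition below 50%.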

test: blockers of yeast NLRP3/ASC/caspase-1 reporter – luminescence, uHTS, primary screen (AID 2825); details: Yeast reconstituted NLRP3/ASC/caspase-1, beta-gal luminescence, 24 h; at 10 µM; stronger effect = higher value;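 also: plate controls were induced DMSO wells for no effect and uninduced yeast grown without galactose for full effect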

SMILES	inhibition
CN(C)c1cccc(C(=O)NCC2(N3CCCCC3)CCCCC2)c1	inactive: 0.965%
COc1cc(OC)c(C(=O)NCC2(N(C)C)CCCCC2)cc1OC	inactive: 15.8%
O=C(NCC1(N2CCOCC2)CCCCC1)c1cc(F)c(F)cc1Cl	inactive: -4.85%
O=C(NCC1(N2CCCCC2)CCCCC1)c1cncc(Br)c1	inactive: -10.7%
CN1CCC(Nc2cccc(F)c2)CC1	inactive: -12%
O=C(NCC1(N2CCCCC2)CCCCC1)c1ccc(OC(F)F)cc1	inactive: 15.1%
CCN1CCC(Nc2ccc(Cl)cc2)CC1	inactive: 18.1%
N#CC1(Nc2ccccc2)CCN(CCc2ccccc2)CC1	inactive: -6.42%
CSc1ccc(C(=O)NCC2(N3CCOCC3)CCCCC2)cc1	inactive: 16%
O=C(NCC1(N2CCCCC2)CCCCC1)c1cccc([N+](=O)[O-])c1	inactive: 17.1%
O=C(NCC1(N2CCCCC2)CCCCC1)c1cccc(C(F)(F)F)c1	inactive: 2.66%
COc1cc(C(=O)NCC2(N3CCCCC3)CCCCC2)ccc1OC(F)F	inactive: 21.3%
O=C(NCC1(N2CCOCC2)CCCCC1)c1cc(=O)[nH]c2ccccc12	inactive: 14.5%
CN1CCN(CCOC(=O)C(O)(c2ccccc2)c2ccccc2)CC1	inactive: 12.9%
COc1ccc(NC2CCN(C(=O)OC(C)(C)C)CC2)cc1	inactive: 20%
CC(C)c1ccc(C(=O)NCC2(N3CCOCC3)CCCCC2)cc1	inactive: 13%
CCOc1ccc(C)cc1CN(CCCl)CCCl	inactive: -3.56%
O=C(NCC1(N2CCCCC2)CCCCC1)c1ccc(F)cc1	inactive: 15.4%
CCCCOc1ccc(C(=O)NCC2(N3CCOCC3)CCCCC2)cc1	inactive: 12.2%

SMILES	inhibition
COc1ccc(NC2CCN(CCc3ccccc3)CC2)c(OC)c1	inactive: 6.9%
CCOC(=O)N1CCC(Nc2ccc(F)cc2)CC1	inactive: 29.9%
CCOC(=O)N1CCC(Nc2cccc(C)c2)CC1	inactive: 27.6%
Cc1ccc(OCC(C)C)c(CN(CCCl)CCCl)c1	inactive: -11.6%
COc1ccc(C(=O)NCC2(N3CCCCC3)CCCCC2)cc1	inactive: 7.69%
COc1ccc(C(=O)NCC2(N3CCCCC3)CCCCC2)c(OC)c1OC	inactive: 23.5%
CC(C)(C)OC(=O)N1CCC(N(C(=O)c2ccccc2)c2ccc(F)cc2)CC1	inactive: 10.1%
O=C(NCC1(N2CCCCC2)CCCCC1)c1ccc(=O)[nH]c1	inactive: 12.5%
O=C(NCC1(N2CCCCC2)CCCCC1)c1cccs1	inactive: 23.7%
CSc1ccccc1C(=O)NCC1(N2CCCCC2)CCCCC1	inactive: 9.26%
O=C(NCC1(N2CCCCC2)CCCCC1)c1ccc(Cl)nc1	inactive: 21.3%
Cc1cc(C)cc(N(C(=O)c2ccccc2)C2CCN(C(=O)OC(C)(C)C)CC2)c1	inactive: 11.9%
O=C(NCC1(N2CCOCC2)CCCCC1)c1cc2ccccc2o1	inactive: -2.26%
O=C(OC1CN2CCC1CC2)C1c2ccccc2Oc2ccccc21 (configuration not stated)	inactive: -4.74%
N#CC1(Nc2ccccc2)CCN(Cc2ccccc2)CC1	inactive: 11.2%
O=C(NCC1(N2CCCCC2)CCCCC1)c1ccc(Cl)s1	inactive: 11.2%
COc1ccc(Cl)cc1C(=O)NCC1(N2CCOCC2)CCCCC1	inactive: 11.2%
CCOC(=O)N1CCC(Nc2ccc(OC)cc2)CC1	inactive: 15.5%
